From ChEMBL document CHEMBL1144408, “Novel atypical antipsychotic agents: rational design, an efficient palladium-catalyzed route, and pharmacological studies” (J Med Chem, 2005)

Key:
[1] = target: 5-hydroxytryptamine receptor 2A (Rattus norvegicus, UniProt P14842)
[2] = target: 5-hydroxytryptamine receptor 2A (Homo sapiens, UniProt P28223); experiment: Inhibition of [3H]ketanserin binding to recombinant human 5-hydroxytryptamine 2A receptor

Ki [2] [nM] | SMILES | Ki [1] [nM]
 | Cc1ccc2n1Cc1ccccc1C=C2N1CCN(C)CC1 | 4.99
5.4 | CN1CCN(C2=Cc3ccccc3Cn3cccc32)CC1 | 
 | CN1CCN(C2=Cc3cc(Cl)ccc3Cn3cccc32)CC1 | 1.35
 | CN1CCN(C2=Cn3cccc3Sc3sccc32)CC1 | 2.15
